Source: EP4834897A1, “COMPOUNDS WITH TWO AZAHETEROCYCLES SUBSTITUTED ISOINDOLINONE SKELETON AND USES THEREOF” (dated 2026)
pIC50: −log10 of the molar value.

Amino acid sequences for entries named in this document (tags omitted).
UniProt Q13422, whole entry: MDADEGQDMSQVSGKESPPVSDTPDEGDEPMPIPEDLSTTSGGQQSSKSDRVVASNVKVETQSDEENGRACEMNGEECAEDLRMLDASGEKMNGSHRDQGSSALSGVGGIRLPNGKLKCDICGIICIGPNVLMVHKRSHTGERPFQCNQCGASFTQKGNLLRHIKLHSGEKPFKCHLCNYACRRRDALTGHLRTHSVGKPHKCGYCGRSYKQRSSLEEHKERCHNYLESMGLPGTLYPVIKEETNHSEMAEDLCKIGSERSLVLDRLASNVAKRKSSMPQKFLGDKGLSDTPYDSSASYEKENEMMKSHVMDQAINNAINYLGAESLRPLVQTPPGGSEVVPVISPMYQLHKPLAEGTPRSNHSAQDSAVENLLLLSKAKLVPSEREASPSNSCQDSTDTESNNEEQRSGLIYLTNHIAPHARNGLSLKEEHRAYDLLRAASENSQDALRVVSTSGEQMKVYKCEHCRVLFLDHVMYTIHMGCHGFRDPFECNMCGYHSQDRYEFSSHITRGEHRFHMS
UniProt Q96SW2, whole entry: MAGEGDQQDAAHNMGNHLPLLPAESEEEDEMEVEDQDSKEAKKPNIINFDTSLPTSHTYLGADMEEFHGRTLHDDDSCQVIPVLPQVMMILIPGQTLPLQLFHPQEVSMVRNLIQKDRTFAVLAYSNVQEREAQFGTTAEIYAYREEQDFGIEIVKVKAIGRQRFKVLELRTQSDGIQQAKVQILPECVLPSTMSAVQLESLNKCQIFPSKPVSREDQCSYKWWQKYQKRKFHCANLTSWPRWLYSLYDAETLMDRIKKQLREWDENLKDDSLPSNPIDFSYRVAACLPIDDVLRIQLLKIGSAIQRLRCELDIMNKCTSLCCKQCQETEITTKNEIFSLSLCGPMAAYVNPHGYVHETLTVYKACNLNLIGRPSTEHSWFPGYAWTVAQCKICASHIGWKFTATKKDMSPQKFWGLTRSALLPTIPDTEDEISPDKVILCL
UniProt P15170, whole entry: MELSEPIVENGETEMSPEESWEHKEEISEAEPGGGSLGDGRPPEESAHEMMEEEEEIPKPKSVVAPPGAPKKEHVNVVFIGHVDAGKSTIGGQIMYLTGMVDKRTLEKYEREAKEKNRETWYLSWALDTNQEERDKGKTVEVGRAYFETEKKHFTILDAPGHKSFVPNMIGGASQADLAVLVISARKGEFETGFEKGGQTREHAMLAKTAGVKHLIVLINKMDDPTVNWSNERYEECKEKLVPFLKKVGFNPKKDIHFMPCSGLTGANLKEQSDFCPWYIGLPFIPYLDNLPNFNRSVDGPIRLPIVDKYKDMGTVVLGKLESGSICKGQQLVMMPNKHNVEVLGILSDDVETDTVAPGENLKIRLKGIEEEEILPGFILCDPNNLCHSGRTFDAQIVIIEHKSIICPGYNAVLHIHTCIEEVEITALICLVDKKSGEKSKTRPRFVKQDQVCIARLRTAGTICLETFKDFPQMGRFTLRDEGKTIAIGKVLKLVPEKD
UniProt P30291, whole entry: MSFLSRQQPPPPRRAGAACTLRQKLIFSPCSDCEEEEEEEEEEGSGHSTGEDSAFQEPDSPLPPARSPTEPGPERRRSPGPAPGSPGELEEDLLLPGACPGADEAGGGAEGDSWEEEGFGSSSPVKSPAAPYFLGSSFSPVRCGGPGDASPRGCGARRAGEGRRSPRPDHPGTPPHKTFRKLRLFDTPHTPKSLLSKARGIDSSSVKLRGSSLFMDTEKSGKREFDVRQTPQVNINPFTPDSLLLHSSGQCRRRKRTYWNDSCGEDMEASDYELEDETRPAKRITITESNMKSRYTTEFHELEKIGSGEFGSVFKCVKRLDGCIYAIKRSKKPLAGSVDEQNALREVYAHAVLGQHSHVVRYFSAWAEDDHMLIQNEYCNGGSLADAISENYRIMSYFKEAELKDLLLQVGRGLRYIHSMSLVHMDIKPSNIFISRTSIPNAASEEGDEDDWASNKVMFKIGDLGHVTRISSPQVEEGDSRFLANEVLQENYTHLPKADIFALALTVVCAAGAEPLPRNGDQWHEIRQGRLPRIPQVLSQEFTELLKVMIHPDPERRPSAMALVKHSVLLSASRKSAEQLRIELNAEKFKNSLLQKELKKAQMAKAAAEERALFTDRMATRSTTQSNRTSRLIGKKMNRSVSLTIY
UniProt Q9UKS7, whole entry: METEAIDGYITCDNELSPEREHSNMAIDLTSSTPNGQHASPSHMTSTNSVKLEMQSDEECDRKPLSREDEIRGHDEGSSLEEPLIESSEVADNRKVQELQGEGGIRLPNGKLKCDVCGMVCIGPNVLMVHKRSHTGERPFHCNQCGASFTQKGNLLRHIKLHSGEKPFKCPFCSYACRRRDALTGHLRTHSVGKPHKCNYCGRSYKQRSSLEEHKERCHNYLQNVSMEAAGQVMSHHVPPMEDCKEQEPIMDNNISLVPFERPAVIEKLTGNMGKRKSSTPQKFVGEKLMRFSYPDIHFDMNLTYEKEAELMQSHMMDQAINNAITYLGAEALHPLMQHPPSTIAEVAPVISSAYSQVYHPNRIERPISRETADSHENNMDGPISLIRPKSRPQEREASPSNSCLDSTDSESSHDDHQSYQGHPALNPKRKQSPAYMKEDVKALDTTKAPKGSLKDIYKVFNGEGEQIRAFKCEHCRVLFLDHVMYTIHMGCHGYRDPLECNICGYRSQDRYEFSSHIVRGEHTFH
UniProt Q9UKT9, whole entry: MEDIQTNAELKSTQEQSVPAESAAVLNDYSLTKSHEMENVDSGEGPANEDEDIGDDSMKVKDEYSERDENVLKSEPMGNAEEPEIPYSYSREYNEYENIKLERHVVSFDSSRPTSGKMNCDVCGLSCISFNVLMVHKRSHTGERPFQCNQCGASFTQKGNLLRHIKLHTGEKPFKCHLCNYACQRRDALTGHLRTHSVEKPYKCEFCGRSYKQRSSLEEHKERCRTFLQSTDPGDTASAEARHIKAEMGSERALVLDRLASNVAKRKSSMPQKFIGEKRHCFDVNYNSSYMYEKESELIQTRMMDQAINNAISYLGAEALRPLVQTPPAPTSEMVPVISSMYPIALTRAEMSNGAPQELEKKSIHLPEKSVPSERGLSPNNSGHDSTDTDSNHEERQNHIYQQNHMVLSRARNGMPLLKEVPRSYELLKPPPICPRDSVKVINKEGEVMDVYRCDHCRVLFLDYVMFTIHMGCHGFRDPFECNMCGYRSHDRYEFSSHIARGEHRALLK
UniProt P48729, whole entry: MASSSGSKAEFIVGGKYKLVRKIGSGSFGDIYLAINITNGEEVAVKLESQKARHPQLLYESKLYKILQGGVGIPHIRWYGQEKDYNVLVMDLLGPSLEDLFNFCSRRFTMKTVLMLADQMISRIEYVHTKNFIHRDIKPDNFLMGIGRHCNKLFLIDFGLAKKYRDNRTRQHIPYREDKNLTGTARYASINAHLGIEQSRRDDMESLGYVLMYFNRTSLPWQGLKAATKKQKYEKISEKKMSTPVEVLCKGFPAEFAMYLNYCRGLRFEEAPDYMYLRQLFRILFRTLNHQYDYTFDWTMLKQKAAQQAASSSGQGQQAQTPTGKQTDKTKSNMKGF
UniProt Q16531, whole entry partner: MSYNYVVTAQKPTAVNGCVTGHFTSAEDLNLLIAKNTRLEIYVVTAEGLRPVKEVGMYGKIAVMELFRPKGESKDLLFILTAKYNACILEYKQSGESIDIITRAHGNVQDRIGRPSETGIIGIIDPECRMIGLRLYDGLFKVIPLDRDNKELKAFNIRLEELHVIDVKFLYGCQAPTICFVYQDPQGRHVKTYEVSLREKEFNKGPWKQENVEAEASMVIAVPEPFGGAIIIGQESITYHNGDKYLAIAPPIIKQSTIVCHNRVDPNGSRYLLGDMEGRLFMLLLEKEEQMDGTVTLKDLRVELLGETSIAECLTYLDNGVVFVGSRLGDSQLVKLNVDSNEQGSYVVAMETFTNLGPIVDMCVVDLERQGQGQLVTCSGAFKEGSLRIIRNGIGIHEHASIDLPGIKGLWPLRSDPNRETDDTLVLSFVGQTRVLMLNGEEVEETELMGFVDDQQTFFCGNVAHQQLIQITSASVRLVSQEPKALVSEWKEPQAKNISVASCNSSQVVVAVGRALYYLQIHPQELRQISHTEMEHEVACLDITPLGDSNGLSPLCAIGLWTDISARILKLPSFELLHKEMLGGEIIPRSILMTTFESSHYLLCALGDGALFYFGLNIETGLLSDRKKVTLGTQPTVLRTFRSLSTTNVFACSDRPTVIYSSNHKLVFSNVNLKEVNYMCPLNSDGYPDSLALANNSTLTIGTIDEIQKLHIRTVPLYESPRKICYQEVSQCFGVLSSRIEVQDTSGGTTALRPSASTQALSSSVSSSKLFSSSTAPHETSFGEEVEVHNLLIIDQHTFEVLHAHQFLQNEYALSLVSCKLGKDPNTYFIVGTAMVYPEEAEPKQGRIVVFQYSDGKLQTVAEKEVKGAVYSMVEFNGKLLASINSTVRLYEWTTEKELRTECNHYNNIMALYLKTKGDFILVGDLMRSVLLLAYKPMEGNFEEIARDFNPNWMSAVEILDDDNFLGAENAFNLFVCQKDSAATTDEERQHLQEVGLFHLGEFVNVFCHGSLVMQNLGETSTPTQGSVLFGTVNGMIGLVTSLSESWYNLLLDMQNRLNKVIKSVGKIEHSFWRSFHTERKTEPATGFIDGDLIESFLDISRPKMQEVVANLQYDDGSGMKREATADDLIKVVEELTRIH

molecular target: IKZF1 (Homo sapiens, UniProt Q13422+Q96SW2); assay: Western blot assay of substrate protein degradation in hPBMCs; settings: 24 hours treatment, compounds at 50 nM and 500 nM (concentration behind the class not stated)

Row | Compound | substrate protein remaining % (IKZF 1)
1 | CC1(C)CCC(C(=O)N2CCN(C3CCN(Cc4ccc5c(c4)CN(C4CCC(=O)NC4=O)C5=O)CC3(F)F)CC2)=C(c2ccc(Cl)cc2)C1 (centres unmarked) | A (0% ≤ substrate protein remaining % ≤ 80%)
2 | O=C1CCC(N2Cc3cc(C(=O)N4CCC(N5CCN(c6cccc(Cl)c6Cl)CC5)CC4)cc(F)c3C2=O)C(=O)N1 (centres unmarked) | B (80%< substrate protein remaining %≤ 100%)
3 | O=C1CCC(N2Cc3cc(CN4CCC(N5CCN(C(c6ccccc6)c6ccccc6)CC5)CC4)c(F)cc3C2=O)C(=O)N1 (centres unmarked) | B (80%< substrate protein remaining %≤ 100%)
4 | O=C1CCC(N2Cc3cc(C(=O)N4CCC(N5CCN(C(c6ccccc6)c6ccccc6)CC5)C(F)(F)C4)cc(F)c3C2=O)C(=O)N1 (centres unmarked) | A (0% ≤ substrate protein remaining % ≤ 80%)
5 | O=C1CCC(N2Cc3ccc(CN4CCC(N5CCN(c6noc7cc(F)ccc67)CC5)CC4)cc3C2=S)C(=O)N1 (centres unmarked) | B (80%< substrate protein remaining %≤ 100%)
6 | O=C1CCC(N2Cc3c(CN4CCC(N5CCN(c6noc7cc(F)ccc67)CC5)CC4)cccc3C2=O)C(=O)N1 (centres unmarked) | B (80%< substrate protein remaining %≤ 100%)
7 | O=C1CCC(N2Cc3cc(CN4CCC(N5CCN(C(c6ccccc6)c6ccccc6)CC5)C(F)(F)C4)cc(F)c3C2=O)C(=O)N1 (centres unmarked) | A (0% ≤ substrate protein remaining % ≤ 80%)

molecular target: GSPT1 (Homo sapiens, UniProt P15170+Q96SW2); assay: as above; settings: 24 hours treatment, compounds at 50 nM and 500 nM (concentration behind the class not stated)

Row | Compound | substrate protein remaining % (GSPT1)
8 | CC1(C)CCC(C(=O)N2CCN(C3CCN(Cc4ccc5c(c4)CN(C4CCC(=O)NC4=O)C5=O)CC3(F)F)CC2)=C(c2ccc(Cl)cc2)C1 (centres unmarked) | A (0% ≤ substrate protein remaining % ≤ 80%)
9 | O=C1CCC(N2Cc3cc(C(=O)N4CCC(N5CCN(c6cccc(Cl)c6Cl)CC5)CC4)cc(F)c3C2=O)C(=O)N1 (centres unmarked) | A (0% ≤ substrate protein remaining % ≤ 80%)
10 | O=C1CCC(N2Cc3cc(CN4CCC(N5CCN(C(c6ccccc6)c6ccccc6)CC5)CC4)c(F)cc3C2=O)C(=O)N1 (centres unmarked) | A (0% ≤ substrate protein remaining % ≤ 80%)
11 | O=C1CCC(N2Cc3cc(C(=O)N4CCC(N5CCN(C(c6ccccc6)c6ccccc6)CC5)C(F)(F)C4)cc(F)c3C2=O)C(=O)N1 (centres unmarked) | A (0% ≤ substrate protein remaining % ≤ 80%)
12 | O=C1CCC(N2Cc3ccc(CN4CCC(N5CCN(c6noc7cc(F)ccc67)CC5)CC4)cc3C2=S)C(=O)N1 (centres unmarked) | A (0% ≤ substrate protein remaining % ≤ 80%)
13 | O=C1CCC(N2Cc3c(CN4CCC(N5CCN(c6noc7cc(F)ccc67)CC5)CC4)cccc3C2=O)C(=O)N1 (centres unmarked) | B (80%< substrate protein remaining %≤ 100%)
14 | O=C1CCC(N2Cc3cc(CN4CCC(N5CCN(C(c6ccccc6)c6ccccc6)CC5)C(F)(F)C4)cc(F)c3C2=O)C(=O)N1 (centres unmarked) | A (0% ≤ substrate protein remaining % ≤ 80%)

molecular target: WEE1 (Homo sapiens, UniProt P30291+Q96SW2); assay: as above; settings: 24 hours treatment, compounds at 50 nM and 500 nM (concentration behind the class not stated)

Row | Compound | substrate protein remaining % (WEE1)
15 | CC1(C)CCC(C(=O)N2CCN(C3CCN(Cc4ccc5c(c4)CN(C4CCC(=O)NC4=O)C5=O)CC3(F)F)CC2)=C(c2ccc(Cl)cc2)C1 (centres unmarked) | A (0% ≤ substrate protein remaining % ≤ 80%)
16 | O=C1CCC(N2Cc3cc(C(=O)N4CCC(N5CCN(c6cccc(Cl)c6Cl)CC5)CC4)cc(F)c3C2=O)C(=O)N1 (centres unmarked) | B (80%< substrate protein remaining %≤ 100%)
17 | O=C1CCC(N2Cc3cc(CN4CCC(N5CCN(C(c6ccccc6)c6ccccc6)CC5)CC4)c(F)cc3C2=O)C(=O)N1 (centres unmarked) | B (80%< substrate protein remaining %≤ 100%)
18 | O=C1CCC(N2Cc3cc(C(=O)N4CCC(N5CCN(C(c6ccccc6)c6ccccc6)CC5)C(F)(F)C4)cc(F)c3C2=O)C(=O)N1 (centres unmarked) | A (0% ≤ substrate protein remaining % ≤ 80%)
19 | O=C1CCC(N2Cc3ccc(CN4CCC(N5CCN(c6noc7cc(F)ccc67)CC5)CC4)cc3C2=S)C(=O)N1 (centres unmarked) | B (80%< substrate protein remaining %≤ 100%)
20 | O=C1CCC(N2Cc3c(CN4CCC(N5CCN(c6noc7cc(F)ccc67)CC5)CC4)cccc3C2=O)C(=O)N1 (centres unmarked) | B (80%< substrate protein remaining %≤ 100%)
21 | O=C1CCC(N2Cc3cc(CN4CCC(N5CCN(C(c6ccccc6)c6ccccc6)CC5)C(F)(F)C4)cc(F)c3C2=O)C(=O)N1 (centres unmarked) | A (0% ≤ substrate protein remaining % ≤ 80%)

molecular target: IKZF2 (Homo sapiens, UniProt Q96SW2+Q9UKS7); assay: as above; settings: 24 hours treatment, compounds at 50 nM and 500 nM (concentration behind the class not stated)

Row | Compound | substrate protein remaining % (IKZF2)
22 | CC1(C)CCC(C(=O)N2CCN(C3CCN(Cc4ccc5c(c4)CN(C4CCC(=O)NC4=O)C5=O)CC3(F)F)CC2)=C(c2ccc(Cl)cc2)C1 (centres unmarked) | A (0% ≤ substrate protein remaining % ≤ 80%)
23 | O=C1CCC(N2Cc3cc(C(=O)N4CCC(N5CCN(c6cccc(Cl)c6Cl)CC5)CC4)cc(F)c3C2=O)C(=O)N1 (centres unmarked) | B (80%< substrate protein remaining %≤ 100%)
24 | O=C1CCC(N2Cc3cc(CN4CCC(N5CCN(C(c6ccccc6)c6ccccc6)CC5)CC4)c(F)cc3C2=O)C(=O)N1 (centres unmarked) | A (0% ≤ substrate protein remaining % ≤ 80%)
25 | O=C1CCC(N2Cc3cc(C(=O)N4CCC(N5CCN(C(c6ccccc6)c6ccccc6)CC5)C(F)(F)C4)cc(F)c3C2=O)C(=O)N1 (centres unmarked) | B (80%< substrate protein remaining %≤ 100%)
26 | O=C1CCC(N2Cc3ccc(CN4CCC(N5CCN(c6noc7cc(F)ccc67)CC5)CC4)cc3C2=S)C(=O)N1 (centres unmarked) | B (80%< substrate protein remaining %≤ 100%)
27 | O=C1CCC(N2Cc3c(CN4CCC(N5CCN(c6noc7cc(F)ccc67)CC5)CC4)cccc3C2=O)C(=O)N1 (centres unmarked) | B (80%< substrate protein remaining %≤ 100%)
28 | O=C1CCC(N2Cc3cc(CN4CCC(N5CCN(C(c6ccccc6)c6ccccc6)CC5)C(F)(F)C4)cc(F)c3C2=O)C(=O)N1 (centres unmarked) | B (80%< substrate protein remaining %≤ 100%)

molecular target: IKZF3 (Homo sapiens, UniProt Q96SW2+Q9UKT9); assay: as above; settings: 24 hours treatment, compounds at 50 nM and 500 nM (concentration behind the class not stated)

Row | Compound | substrate protein remaining % (IKZF3)
29 | CC1(C)CCC(C(=O)N2CCN(C3CCN(Cc4ccc5c(c4)CN(C4CCC(=O)NC4=O)C5=O)CC3(F)F)CC2)=C(c2ccc(Cl)cc2)C1 (centres unmarked) | A (0% ≤ substrate protein remaining % ≤ 80%)
30 | O=C1CCC(N2Cc3cc(C(=O)N4CCC(N5CCN(c6cccc(Cl)c6Cl)CC5)CC4)cc(F)c3C2=O)C(=O)N1 (centres unmarked) | B (80%< substrate protein remaining %≤ 100%)
31 | O=C1CCC(N2Cc3cc(CN4CCC(N5CCN(C(c6ccccc6)c6ccccc6)CC5)CC4)c(F)cc3C2=O)C(=O)N1 (centres unmarked) | B (80%< substrate protein remaining %≤ 100%)
32 | O=C1CCC(N2Cc3cc(C(=O)N4CCC(N5CCN(C(c6ccccc6)c6ccccc6)CC5)C(F)(F)C4)cc(F)c3C2=O)C(=O)N1 (centres unmarked) | B (80%< substrate protein remaining %≤ 100%)
33 | O=C1CCC(N2Cc3ccc(CN4CCC(N5CCN(c6noc7cc(F)ccc67)CC5)CC4)cc3C2=S)C(=O)N1 (centres unmarked) | B (80%< substrate protein remaining %≤ 100%)
34 | O=C1CCC(N2Cc3c(CN4CCC(N5CCN(c6noc7cc(F)ccc67)CC5)CC4)cccc3C2=O)C(=O)N1 (centres unmarked) | B (80%< substrate protein remaining %≤ 100%)
35 | O=C1CCC(N2Cc3cc(CN4CCC(N5CCN(C(c6ccccc6)c6ccccc6)CC5)C(F)(F)C4)cc(F)c3C2=O)C(=O)N1 (centres unmarked) | A (0% ≤ substrate protein remaining % ≤ 80%)

molecular target: CK1α (Homo sapiens, UniProt P48729+Q96SW2); assay: as above; settings: 24 hours treatment, compounds at 50 nM and 500 nM (concentration behind the class not stated)

Row | Compound | substrate protein remaining % (CK1a)
36 | CC1(C)CCC(C(=O)N2CCN(C3CCN(Cc4ccc5c(c4)CN(C4CCC(=O)NC4=O)C5=O)CC3(F)F)CC2)=C(c2ccc(Cl)cc2)C1 (centres unmarked) | B (80%< substrate protein remaining %≤ 100%)
37 | O=C1CCC(N2Cc3cc(C(=O)N4CCC(N5CCN(c6cccc(Cl)c6Cl)CC5)CC4)cc(F)c3C2=O)C(=O)N1 (centres unmarked) | B (80%< substrate protein remaining %≤ 100%)
38 | O=C1CCC(N2Cc3cc(CN4CCC(N5CCN(C(c6ccccc6)c6ccccc6)CC5)CC4)c(F)cc3C2=O)C(=O)N1 (centres unmarked) | B (80%< substrate protein remaining %≤ 100%)
39 | O=C1CCC(N2Cc3cc(C(=O)N4CCC(N5CCN(C(c6ccccc6)c6ccccc6)CC5)C(F)(F)C4)cc(F)c3C2=O)C(=O)N1 (centres unmarked) | B (80%< substrate protein remaining %≤ 100%)
40 | O=C1CCC(N2Cc3ccc(CN4CCC(N5CCN(c6noc7cc(F)ccc67)CC5)CC4)cc3C2=S)C(=O)N1 (centres unmarked) | A (0% ≤ substrate protein remaining % ≤ 80%)
41 | O=C1CCC(N2Cc3c(CN4CCC(N5CCN(c6noc7cc(F)ccc67)CC5)CC4)cccc3C2=O)C(=O)N1 (centres unmarked) | A (0% ≤ substrate protein remaining % ≤ 80%)
42 | O=C1CCC(N2Cc3cc(CN4CCC(N5CCN(C(c6ccccc6)c6ccccc6)CC5)C(F)(F)C4)cc(F)c3C2=O)C(=O)N1 (centres unmarked) | B (80%< substrate protein remaining %≤ 100%)

molecular target: CRBN (Homo sapiens, UniProt Q96SW2); assay: CRBN binding affinity by HTRF (CEREBLON BINDING kit); settings: CRBN binding, HTRF, compound at 0.5 µM

Row | Compound | Inhibition Rate at 0.5 µM (%)
43 | O=C1CCC(N2Cc3cc(C(=O)N4CCC(N5CCN(c6cccc(Cl)c6Cl)CC5)CC4)cc(F)c3C2=O)C(=O)N1 (centres unmarked) | a2 (20% < a2 ≤ 30%)
44 | O=C1CCC(N2Cc3cc(C(=O)N4CCC(N5CCN(C(c6ccccc6)c6ccccc6)CC5)C(F)(F)C4)cc(F)c3C2=O)C(=O)N1 (centres unmarked) | a3 (30% < a3 ≤ 40%)
45 | O=C1CCC(N2Cc3ccc(CN4CCC(N5CCN(c6noc7cc(F)ccc67)CC5)CC4)cc3C2=S)C(=O)N1 (centres unmarked) | a2 (20% < a2 ≤ 30%)
46 | O=C1CCC(N2Cc3c(CN4CCC(N5CCN(c6noc7cc(F)ccc67)CC5)CC4)cccc3C2=O)C(=O)N1 (centres unmarked) | a2 (20% < a2 ≤ 30%)

same assay, conditions: CRBN binding, HTRF, compound at 2 µM

Row | Compound | Inhibition Rate at 2 µM (%)
47 | O=C1CCC(N2Cc3cc(C(=O)N4CCC(N5CCN(c6cccc(Cl)c6Cl)CC5)CC4)cc(F)c3C2=O)C(=O)N1 (centres unmarked) | a5 (53% < a5 ≤ 60%)
48 | O=C1CCC(N2Cc3cc(C(=O)N4CCC(N5CCN(C(c6ccccc6)c6ccccc6)CC5)C(F)(F)C4)cc(F)c3C2=O)C(=O)N1 (centres unmarked) | a7 (70% < a7 ≤80%)
49 | O=C1CCC(N2Cc3ccc(CN4CCC(N5CCN(c6noc7cc(F)ccc67)CC5)CC4)cc3C2=S)C(=O)N1 (centres unmarked) | a6 (60% < a6 ≤ 70%)
50 | O=C1CCC(N2Cc3c(CN4CCC(N5CCN(c6noc7cc(F)ccc67)CC5)CC4)cccc3C2=O)C(=O)N1 (centres unmarked) | a5 (53% < a5 ≤ 60%)

same assay, conditions: read-out: HTRF IC50; human Cereblon WT GST-tagged protein; 3 hours at room temperature

Row | Compound | pIC50
51 | CC1(C)CCC(C(=O)N2CCN(C3CCN(Cc4ccc5c(c4)CN(C4CCC(=O)NC4=O)C5=O)CC3(F)F)CC2)=C(c2ccc(Cl)cc2)C1 (centres unmarked) | 6.30 to 7.00
52 | O=C1CCC(N2Cc3cc(CN4CCC(N5CCN(C(c6ccccc6)c6ccccc6)CC5)CC4)c(F)cc3C2=O)C(=O)N1 (centres unmarked) | 5.82 to 6.00
53 | O=C1CCC(N2Cc3cc(CN4CCC(N5CCN(C(c6ccccc6)c6ccccc6)CC5)C(F)(F)C4)cc(F)c3C2=O)C(=O)N1 (centres unmarked) | 6.00 to 6.30
